These results are taken from BindingDB's records for 1656044 (National Institute of Diabetes and Digestive and Kidney …, 1991).

Chains of the proteins cited; added tags and fusions are not shown.
UniProt Q99720, whole entry, looked up: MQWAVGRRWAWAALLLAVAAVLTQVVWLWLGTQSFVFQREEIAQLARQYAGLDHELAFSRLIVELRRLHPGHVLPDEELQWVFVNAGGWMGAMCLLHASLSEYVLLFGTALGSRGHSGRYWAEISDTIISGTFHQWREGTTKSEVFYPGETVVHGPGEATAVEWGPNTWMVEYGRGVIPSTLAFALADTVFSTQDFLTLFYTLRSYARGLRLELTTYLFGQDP

Each structure is given as a SMILES string.

Assay [1] addresses T1, Sigma non-opioid intracellular receptor 1 (Homo sapiens, UniProt Q99720). In words: ChEBML_201279.
The target of assay [2] is T1, Sigma non-opioid intracellular receptor 1. In words: Compound was tested for the inhibitory activity against Sigma opioid receptor by using [3H](+)-3-PPP as radioligand in guinea pig brain.

For orientation: Ki means the dissociation constant of the complex between target and ligand, obtained from inhibition or displacement. Read a high Ki as a looser hold on the target. Consider `O=C(Cc1ccc(Cl)c(Cl)c1)N[C@H]1CCCC[C@H]1N1CCCC1`, for which, in assay [1], the Ki was found to be 146 nM.
`O=C(Cc1ccc(Cl)c(Cl)c1)N[C@@H]1CCCC[C@@H]1N1CCCC1` came in with a Ki in assay [2] of 11 nM.
